Only a part is listed here, and it is no random draw. Some of these compounds have results that are not shown, active ones among them. Activity calls are given as the source filed them.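 Rule for the calls: active = Her2 level under about 52% in both replicate screens, with viability over 70% of control (limit read from the data); inconclusive = Her2 under the limit in one screen only, or viability under 70%; inactive = Her2 level above the set limit.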

Sequences of proteins named here, by UniProt entry; tags and fusion partners are left off.
UniProt P04626, whole entry: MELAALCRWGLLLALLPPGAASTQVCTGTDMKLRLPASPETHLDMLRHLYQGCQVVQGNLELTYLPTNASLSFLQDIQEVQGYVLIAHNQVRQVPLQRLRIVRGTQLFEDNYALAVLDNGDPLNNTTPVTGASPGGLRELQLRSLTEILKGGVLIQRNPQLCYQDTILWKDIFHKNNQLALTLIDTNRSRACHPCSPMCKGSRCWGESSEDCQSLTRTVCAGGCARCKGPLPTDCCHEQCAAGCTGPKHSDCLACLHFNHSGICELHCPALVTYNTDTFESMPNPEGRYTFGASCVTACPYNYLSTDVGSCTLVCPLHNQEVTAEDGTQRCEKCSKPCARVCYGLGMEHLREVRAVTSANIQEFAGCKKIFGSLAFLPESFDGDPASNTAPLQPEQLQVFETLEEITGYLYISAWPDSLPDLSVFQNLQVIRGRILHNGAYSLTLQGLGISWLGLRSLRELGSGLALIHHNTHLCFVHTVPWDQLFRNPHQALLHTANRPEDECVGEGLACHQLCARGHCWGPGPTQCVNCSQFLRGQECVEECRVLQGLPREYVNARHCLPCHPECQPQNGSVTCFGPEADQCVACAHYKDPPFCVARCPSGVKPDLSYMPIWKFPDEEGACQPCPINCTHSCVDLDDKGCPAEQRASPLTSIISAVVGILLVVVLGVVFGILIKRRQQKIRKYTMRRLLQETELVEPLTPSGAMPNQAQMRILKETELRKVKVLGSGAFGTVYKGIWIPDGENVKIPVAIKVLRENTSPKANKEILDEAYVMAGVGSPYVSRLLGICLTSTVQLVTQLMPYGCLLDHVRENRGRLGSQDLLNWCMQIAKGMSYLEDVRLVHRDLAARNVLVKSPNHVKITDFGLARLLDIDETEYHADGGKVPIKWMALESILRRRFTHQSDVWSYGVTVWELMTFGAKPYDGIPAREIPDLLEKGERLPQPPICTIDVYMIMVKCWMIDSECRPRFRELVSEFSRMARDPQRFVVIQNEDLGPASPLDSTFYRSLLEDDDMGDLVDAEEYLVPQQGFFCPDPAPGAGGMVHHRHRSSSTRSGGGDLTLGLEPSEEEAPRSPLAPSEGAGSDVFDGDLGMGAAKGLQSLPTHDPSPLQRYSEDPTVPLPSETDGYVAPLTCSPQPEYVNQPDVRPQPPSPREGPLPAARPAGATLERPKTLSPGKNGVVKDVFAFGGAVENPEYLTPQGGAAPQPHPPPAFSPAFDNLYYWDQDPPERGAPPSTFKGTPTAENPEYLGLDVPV

In the test the target is Receptor tyrosine-protein kinase erbB-2 (Homo sapiens) (UniProt P04626). The test is described as follows: Her2 expression decrease, cell viability multiplex – SKBR3 breast tumor cells, AlphaScreen, ATP viability, primary screen (AID 461).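 Note: lower value means less Her2 protein in the cells.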 The conditions noted are these: 18-24 h, at 10 µM, active compounds read low.
In the case of `O=C(OC1CN2CCC1CC2)C(CO)(c1ccccc1)c1ccccc1` (stereo unspecified), the Her2 level was inactive: 91%.

(Values after PubChem BioAssay AID461 (SRMLSC, 2006).)
